Assay: in vivo
Settings: Wistar, rat, sc

## Cc1cc2c(s1)Nc1ccccc1N=C2N1CCN(C)CC1 [Olanzapine]
  ED50 at 2 h: 0.72 mg/kg
